Values quoted from earlier work in patent US11026985B2, “Methods for removing contaminants from plant-derived pharmaceuticals” (priority 2018, dated 2021).

Conditions: permissible limit in Cannabis, State of Oregon

CN(C)NC(=O)CCC(=O)O [Daminozide]
Action Level (ppm): 1 ppm
